{"source": "patent US6741954B2", "about": "“Selection method for odorants” (Symrise GmbH & Co. KG, priority 2000, dated 2004)", "type_in_all_cases": "physicochemical", "key": {"[1]": {"experiment": "Headspace above the wet washed hair: relative partition parameter headspace/shampoo (SPME-GC)", "conditions": "log of amount in headspace above wet washed hair relative to amount in shampoo; 1% odorant mixture, 3 h standing, SPME 15 min"}, "[2]": {"experiment": "Headspace above the washing powder: relative partition parameter (SPME-GC)", "conditions": "log of amount in headspace relative to amount in washing powder; 0.5% odorant mixture, SPME 15 min"}, "[3]": {"experiment": "Headspace above the soap bar: relative partition parameter (SPME-GC)", "conditions": "log of amount in headspace relative to amount in soap; 1.2% odorant mixture, grated soap, SPME 15 min"}}, "note": "Only a part of the results on these compounds is given; other tests are left out.", "data": [{"substance": "Musk, xylene", "values": [{"measurement": "Activity (logarithmic partition parameter above wet hair)", "setting": "[1]", "result": "−2.974"}, {"measurement": "Activity (logarithmic partition parameter above washing powder)", "setting": "[2]", "result": "−2.764"}, {"measurement": "Activity (logarithmic partition parameter above soap)", "setting": "[3]", "result": "−2.397"}]}]}
